Target: human CB2 receptor (hCB2) (Homo sapiens, UniProt P34972)
Experiment: cell-based

Chains of the proteins cited; added tags and fusions are not shown.
UniProt P34972, whole entry: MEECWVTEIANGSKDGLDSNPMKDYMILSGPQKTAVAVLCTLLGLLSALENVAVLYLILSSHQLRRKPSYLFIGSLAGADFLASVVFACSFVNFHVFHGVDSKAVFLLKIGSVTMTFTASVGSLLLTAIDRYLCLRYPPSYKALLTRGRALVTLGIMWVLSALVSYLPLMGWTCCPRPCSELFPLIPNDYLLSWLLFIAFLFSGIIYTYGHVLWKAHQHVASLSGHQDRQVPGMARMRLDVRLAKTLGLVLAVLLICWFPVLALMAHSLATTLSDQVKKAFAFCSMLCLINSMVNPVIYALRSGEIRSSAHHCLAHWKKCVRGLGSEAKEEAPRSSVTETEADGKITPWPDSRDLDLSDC

Row | SMILES | EC50 [nM]
1 | Cc1noc([C@@H](NC(=O)c2nc(-c3ccccc3)n3c2CN(CC2CC2)CC3)C(C)(C)C)n1 [Compound 88, (S)-7-(cyclopropylmethyl)-N-(2,2-dimethyl-1-(3-methyl-1,2,4-oxadiazol-5-yl)propyl)-3-phenyl-5,6,7,8-tetrahydroimidazo[1,5-a]pyrazine-1-carboxamide] | 10 to 100
2 | O=C(NCC1CCOCC1)c1nc(-c2ccccc2)n2c1CN(CCO)CC2 [Compound 169, 7-(2-hydrodxyethyl)-3-phenyl-N-((tetrahydro-2H-pyran-4-yl)methyl)-5,6,7,8-tetrahydroimidazo[1,5-a]pyrazine-1-carboxamide] | > 10000
3 | CN1CCn2c(-c3ccc(Cl)cc3F)nc(C(=O)N3CCC4(CCNC4=O)CC3)c2C1 [Compound 220, 8-(3-(4-chloro-2-fluorophenyl)-7-methyl-5,6,7,8-tetrahydroimidazo[1,5-a]pyrazine-1-carbonyl)-2,8-diazaspiro[4.5]decan-1-one] | > 10000
4 | CNC(=O)[C@@H](NC(=O)c1nc(-c2ccc3c(c2)OCCO3)n2c1CN(C)CCC2)C(C)(C)C [Compound 326, (S)-3-(2,3-dihydrobenzo[b][1,4]dioxin-6-yl)-N-(3,3-dimethyl-1-(methylamino)-1-oxobutan-2-yl)-8-methyl-6,7,8,9-tetrahydro-5H-imidazo[1,5-a][1,4]diazepine-1-carboxamide] | > 10000
5 | CNC(=O)[C@@H](NC(=O)c1nc(-c2ccc(C(F)(F)F)cc2C(F)(F)F)n2c1CN(C)CCC2)C(C)(C)C [Compound 617, (S)-3-(2,4-bis(trifluoromethyl)phenyl)-N-(3,3-dimethyl-1-(methylamino)-1-oxobutan-2-yl)-8-methyl-6,7,8,9-tetrahydro-5H-imidazo[1,5-a][1,4]diazepine-1-carboxamide] | > 10000
6 | CN1CCCn2c(-c3ccccc3)nc(C(=O)Nc3cc(C(C)(C)C)no3)c2C1 [Compound 623, N-(3-tert-butylisoxazol-5-yl)-8-methyl-3-phenyl-6,7,8,9-tetrahydro-5H-imidazo[1,5-a][1,4]diazepine-1-carboxamide] | > 10000
7 | CNC(=O)[C@@H](NC(=O)c1nc(-c2ccc(C(F)(F)F)cc2C)n2c1CN(C)CCC2)C(C)(C)C [Compound 632, (S)-N-(3,3-dimethyl-1-(methylamino)-1-oxobutan-2-yl)-8-methyl-3-(2-methyl-4-(trifluoromethyl)phenyl)-6,7,8,9-tetrahydro-5H-imidazo[1,5-a][1,4]diazepine-1-carboxamide] | > 10000
8 | CNC(=O)[C@@H](NC(=O)c1nc(-c2cccnc2C)n2c1CN(C)CCC2)C(C)(C)C [Compound 640, (S)-N-(3,3-dimethyl-1-(methylamino)-1-oxobutan-2-yl)-8-methyl-3-(2-methylpyridin-3-yl)-6,7,8,9-tetrahydro-5H-imidazo[1,5-a][1,4]diazepine-1-carboxamide] | > 10000
9 | CNC(=O)[C@@H](NC(=O)c1nc(-c2cccnc2OC(C)C)n2c1CN(C)CCC2)C(C)(C)C [Compound 641, (S)-N-(3,3-dimethyl-1-(methylamino)-1-oxobutan-2-yl)-3-(2-isopropoxypyridin-3-yl)-8-methyl-6,7,8,9-tetrahydro-5H-imidazo[1,5-a][1,4]diazepine-1-carboxamide] | > 10000
10 | CNC(=O)[C@@H](NC(=O)c1nc(-c2ccc(OC(C)C)cc2)n2c1CN(C)CCC2)C(C)(C)C [Compound 649, (S)-N-(3,3-dimethyl-1-(methylamino)-1-oxobutan-2-yl)-3-(4-isopropoxyphenyl)-8-methyl-6,7,8,9-tetrahydro-5H-imidazo[1,5-a][1,4]diazepine-1-carboxamide] | > 10000
11 | CNC(=O)[C@@H](NC(=O)c1nc(-c2cccc(F)c2OC)n2c1CN(C)CCC2)C(C)(C)C [Compound 657, (S)-N-(3,3-dimethyl-1-(methylamino)-1-oxobutan-2-yl)-3-(3-fluoro-2-methoxyphenyl)-8-methyl-6,7,8,9-tetrahydro-5H-imidazo[1,5-a][1,4]diazepine-1-carboxamide] | > 10000
12 | CNC(=O)[C@@H](NC(=O)c1nc(-c2cc(F)c(F)cc2F)n2c1CN(c1cncc(Cl)n1)CC2)C(C)(C)C [Compound 686, (S)-7-(6-chloropyrazin-2-yl)-N-(3,3-dimethyl-1-(methylamino)-1-oxobutan-2-yl)-3-(2,4,5-trifluorophenyl)-5,6,7,8-tetrahydroimidazo[1,5-a]pyrazine-1-carboxamide] | 0.1 to 10
13 | CNC(=O)[C@@H](NC(=O)c1nc(-c2cc(F)c(F)cc2F)n2c1CN(c1cccc(Cl)n1)CC2)C(C)(C)C [Compound 687, (S)-7-(6-chloropyridin-2-yl)-N-(3,3-dimethyl-1-(methylamino)-1-oxobutan-2-yl)-3-(2,4,5-trifluorophenyl)-5,6,7,8-tetrahydroimidazo[1,5-a]pyrazine-l-carboxamide] | 10 to 100
14 | CNC(=O)[C@@H](NC(=O)c1nc(-c2cc(F)c(F)cc2F)n2c1CN(c1ncccn1)CC2)C(C)(C)C [Compound 688, (S)-N-(3,3-dimethyl-1-(methylamino)-1-oxobutan-2-yl)-7-(pyrimidin-2-yl)-3-(2,4,5-trifluorophenyl)-5,6,7,8-tetrahydroimidazo[1,5-a]pyrazine-1-carboxamide] | 0.1 to 10
15 | CNC(=O)[C@@H](NC(=O)c1nc(-c2cc(F)c(F)cc2F)n2c1CN(CC1CC1)CC2)C(C)(C)C [Compound 689, (S)-7-(cyclopropylmethyl)-N-(3,3-dimethyl-1-(methylamino)-1-oxobutan-2-yl)-3-(2,4,5-trifluorophenyl)-5,6,7,8-tetrahydroimidazo[1,5-a]pyrazine-1-carboxamide] | 0.1 to 10
16 | CNC(=O)[C@@H](NC(=O)c1nc(-c2cc(F)c(F)cc2F)n2c1CN(Cc1cncnc1)CC2)C(C)(C)C [Compound 692, (S)-N-(3,3-dimethyl-1-(methylamino)-1-oxobutan-2-yl)-7-(pyrimidin-5-ylmethyl)-3-(2,4,5-trifluorophenyl)-5,6,7,8-tetrahydroimidazo[1,5-a]pyrazine-1-carboxamide] | 10 to 100
17 | Cc1nnc([C@H](NC(=O)c2nc(-c3cc(F)c(F)cc3F)n3c2CN(CC(C)C)CC3)C(C)(C)C)o1 [Compound 698, (R)-N-(2,2-dimethyl-1-(5-methyl-1,3,4-oxadiazol-2-yl)propyl)-7-isobutyl-3-(2,4,5-trifluorophenyl)-5,6,7,8-tetrahydroimidazo[1,5-a]pyrazine-1-carboxamide] | 10 to 100
18 | Cc1nnc([C@@H](NC(=O)c2nc(-c3cc(Cl)ccc3F)n3c2CN(CC(C)C)CC3)C(C)(C)C)o1 [Compound 705, (S)-3-(5-chloro-2-fluorophenyl)-N-(2,2-dimethyl-1-(5-methyl-1,3,4-oxadiazol-2-yl)propyl)-7-isobutyl-5,6,7,8-tetrahydroimidazo[1,5-a]pyrazine-1-carboxamide] | 10 to 100
19 | Cc1nnc([C@@H](NC(=O)c2nc(-c3cc(F)c(F)cc3F)n3c2CN(Cc2ccco2)CC3)C(C)(C)C)o1 [Compound 707, (S)-N-(2,2-dimethyl-1-(5-methyl-1,3,4-oxadiazol-2-yl)propyl)-7-(furan-2-ylmethyl)-3-(2,4,5-trifluorophenyl)-5,6,7,8-tetrahydroimidazo[1,5-a]pyrazine-1-carboxamide] | > 10000
20 | CNC(=O)[C@@H](NC(=O)c1nc(-c2cnn(-c3ccccc3)c2C)n2c1CN(C)CCC2)C(C)(C)C [Compound 709, (S)-N-(3,3-dimethyl-1-(methylamino)-1-oxobutan-2-yl)-8-methyl-3-(5-methyl-1-phenyl-1H-pyrazol-4-yl)-6,7,8,9-tetrahydro-5H-imidazo[1,5-a][1,4]diazepine-1-carboxamide] | > 10000
21 | CNC(=O)[C@@H](NC(=O)c1nc(-c2cnn(CC(C)C)c2)n2c1CN(C)CCC2)C(C)(C)C [Compound 710, (S)-N-(3,3-dimethyl-1-(methylamino)-1-oxobutan-2-yl)-3-(1-isobutyl-1H-pyrazol-4-yl)-8-methyl-6,7,8,9-tetrahydro-5H-imidazo[1,5-a][1,4]diazepine-1-carboxamide] | > 10000
22 | CNC(=O)[C@@H](NC(=O)c1nc(-c2cc(F)c(F)cc2F)n2c1CN(Cc1ccccc1)CCC2)C(C)(C)C [Compound 712, (S)-8-benzyl-N-(3,3-dimethyl-1-(methylamino)-1-oxobutan-2-yl)-3-(2,4,5-trifluorophenyl)-6,7,8,9-tetrahydro-5H-imidazo[1,5-a][1,4]diazepine-1-carboxamide] | 0.1 to 10
23 | CNC(=O)[C@@H](NC(=O)c1nc(-c2cc(F)c(F)cc2F)n2c1CN(CC1CC1)CCC2)C(C)(C)C [Compound 713, (S)-8-(cyclopropylmethyl)-N-(3,3-dimethyl-1-(methylamino)-1-oxobutan-2-yl)-3-(2,4,5-trifluorophenyl)-6,7,8,9-tetrahydro-5H-imidazo[1,5-a][1,4]diazepine-1-carboxamide] | 10 to 100
24 | CNC(=O)[C@@H](NC(=O)c1nc(-c2cc(F)c(F)cc2F)n2c1CN(Cc1cncnc1)CCC2)C(C)(C)C [Compound 714, (S)-N-(3,3-dimethyl-1-(methylamino)-1-oxobutan-2-yl)-8-(pyrimidin-5-ylmethyl)-3-(2,4,5-trifluorophenyl)-6,7,8,9-tetrahydro-5H-imidazo[1,5-a][1,4]diazepine-1-carboxamide] | 10 to 100
25 | CNC(=O)[C@@H](NC(=O)c1nc(-c2cc(F)c(F)cc2F)n2c1CN(Cc1cnn(C)c1)CCC2)C(C)(C)C [Compound 715, (S)-N-(3,3-dimethyl-1-(methylamino)-1-oxobutan-2-yl)-8-((1-methyl-1H-pyrazol-4-yl)methyl)-3-(2,4,5-trifluorophenyl)-6,7,8,9-tetrahydro-5H-imidazo[1,5-a][1,4]diazepine-1-carboxamide] | 10 to 100
26 | CNC(=O)[C@@H](NC(=O)c1nc(-c2cc(F)c(F)cc2F)n2c1CN(c1ncccn1)CCC2)C(C)(C)C [Compound 716, (S)-N-(3,3-dimethyl-1-(methylamino)-1-oxobutan-2-yl)-8-(pyrimidin-2-yl)-3-(2,4,5-trifluorophenyl)-6,7,8,9-tetrahydro-5H-imidazo[1,5-a][1,4]diazepine-1-carboxamide] | 10 to 100
